Experimental data reported in ChEMBL document CHEMBL1152513, “Synthesis and characterizations of novel quinoline derivatives having mixed ligand activities at the kappa and mu receptors: Potential therapeutic efficacy against morphine dependence” (Bioorg Med Chem, 2009).
The source made the active and inactive calls. The rule behind the calls is not given here.

Amino acid sequences for entries named in this document (tags omitted). A change or cut given only in a name is not applied to a line headed by its entry.
UniProt P41145: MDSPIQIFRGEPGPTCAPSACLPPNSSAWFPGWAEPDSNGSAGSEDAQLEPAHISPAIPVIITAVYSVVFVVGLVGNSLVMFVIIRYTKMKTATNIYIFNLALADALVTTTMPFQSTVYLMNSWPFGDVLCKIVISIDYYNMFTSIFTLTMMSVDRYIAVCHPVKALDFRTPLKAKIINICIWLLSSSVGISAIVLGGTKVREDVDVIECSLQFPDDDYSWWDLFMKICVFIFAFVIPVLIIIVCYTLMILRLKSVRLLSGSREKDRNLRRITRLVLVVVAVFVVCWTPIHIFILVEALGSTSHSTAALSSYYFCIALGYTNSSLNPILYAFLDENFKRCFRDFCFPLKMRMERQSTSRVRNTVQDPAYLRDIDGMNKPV

What was measured:
[1] = molecular target: Kappa-type opioid receptor (Homo sapiens) (UniProt P41145); assay: Displacement of [3H]dynorphin from human kappa opioid receptor expressed in C6 giloma cells measured total binding per mg of protein at 5 uM; format: cell-based
In short: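 Membranes from C6 glioma cells stably transfected with human KOR (G418 selected), harvested in PBS, homogenized in 50 mM Tris–HCl pH 7.4 and spun at 30,000g. Nonspecific binding defined with 10 µM U50488H. Read by filtration and counting.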

[2] = species on record: Rattus norvegicus; assay: Induction of ERK phosphorylation in rat astrocyte at 1 uM after 10 mins

For CN(C(=O)Cc1ccc(Cl)c(Cl)c1)C1CCCCC1N1CCCC1 (configuration not stated), the Activity [1] was 19% and the Activity [2] was “Active”.
